Biological target: T1, Mouse Plk1 Polo box domain (Plk1-PBD, amino acid residues 367-603) (mouse, UniProt Q07832 367-603)
T1 construct: Polo-like kinase 1 (Plk1), mouse, polo box domain, residues 367-603; TEV site ENLYFQ/S between the His6 tag and the PBD; cleavage between Q and S should leave a Ser before residue 367 (surmised); also called polo box domain of Polo-like kinase 1; source: E. coli BL21 (DE3), purified (Ni-NTA, TEV digestion, Superdex 75 gel filtration); not shown: His6, N-terminal, cleaved
Experiment: ITC; phosphorylated peptide (1.2 mM) injected into Plk1-PBD (0.1 mM) in the cell; 15 °C; 20 mM Tris-Cl pH 8.0, 300 mM NaCl, 3 mM DTT; one-site binding model
Conditions: both partners purified

Amino acid sequences for entries named in this document (tags omitted). Residues count along the entry.
UniProt Q07832, 367-603: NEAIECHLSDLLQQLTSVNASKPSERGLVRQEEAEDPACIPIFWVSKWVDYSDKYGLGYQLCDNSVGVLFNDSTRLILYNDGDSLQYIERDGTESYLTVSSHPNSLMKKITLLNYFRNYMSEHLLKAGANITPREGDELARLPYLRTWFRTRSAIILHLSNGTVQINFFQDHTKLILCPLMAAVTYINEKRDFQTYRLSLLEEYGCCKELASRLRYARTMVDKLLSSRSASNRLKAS

B1: Phosphorylated Emi2 146-177 peptide (phospho-Thr152 and phospho-Thr176) (peptide, UniProt Q8CDI2 146-177, looked up)
peptide: SPLVTSTIKTEDVVSNSQNSRLHFSQHKTSTI
modifications: phosphothreonine at 152; phosphothreonine at 176
notes: Made on Rink amide resin, so probably a C-terminal amide (surmised); source: synthetic peptide (Fmoc SPPS, Rink amide resin, RP-HPLC)
How did the Kd turn out when B1 was run?
The Kd was 1730 nM.
